# Results published in US6337344B1, “Indole derivatives as inhibitors or factor Xa” (Aventis Pharma Deutschland GmbH, priority 1997, dated 2002).
# By UniProt entry, the sequences of proteins in these tests, tags left out. Residues count along the entry.
# UniProt P00742, 235-488 limits assumed: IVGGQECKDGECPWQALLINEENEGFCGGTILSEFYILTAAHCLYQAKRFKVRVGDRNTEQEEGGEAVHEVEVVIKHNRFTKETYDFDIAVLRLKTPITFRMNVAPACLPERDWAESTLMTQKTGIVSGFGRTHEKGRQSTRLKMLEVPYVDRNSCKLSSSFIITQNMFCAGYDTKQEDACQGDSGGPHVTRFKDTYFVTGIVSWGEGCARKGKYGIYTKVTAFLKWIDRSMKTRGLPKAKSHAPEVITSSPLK
# UniProt P00742, 41-179 partner limits assumed: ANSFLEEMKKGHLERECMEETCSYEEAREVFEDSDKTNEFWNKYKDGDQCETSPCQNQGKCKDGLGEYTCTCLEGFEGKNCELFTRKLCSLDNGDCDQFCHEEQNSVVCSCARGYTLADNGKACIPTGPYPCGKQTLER
# Target: human factor Xa (Homo sapiens, UniProt P00742)
# Assay: Factor Xa assay (Test 1, a.), chromogenic substrate S-2765
# Assay type: biochemical
# Conditions: read-out: Ki (Xa); purified human factor Xa 0.5 nM, substrate S-2765 140 μM, 25° C.; Ki from IC50 corrected for substrate competition; tested form: TFA
row,Compound,Ki
1,N=C(N)c1cccc(Cn2c(C(=O)NCc3ccc4ccccc4c3)cc3c(O)cccc32)c1,1.7 µM
2,N=C(N)c1ccc(Cn2c(C(=O)O)cc3ccccc32)cc1,110 µM
3,N=C(N)c1cccc(Cn2c(C(=O)NCC3CCCCC3)cc3c(O)cccc32)c1,1.1 µM
4,N=C(N)c1cccc(Cn2c(C(=O)NCCc3ccc(Cl)cc3)cc3c(O)cccc32)c1,1.6 µM
5,Cc1cccc2c1cc(C(N)=O)n2Cc1cccc(C(=N)N)c1,7.9 µM
6,N=C(N)c1cccc(Cn2c(C(=O)NCc3ccccn3)cc3c(O)cccc32)c1,3.3 µM
